Data published in patent US10196373B2, “Substituted 2-hydroxy-4-(2-(phenylsulfonamido)acetamido)benzoic acid analogs as inhibitors of STAT protein” (University of Central Florida Research Foundation, Inc., priority 2010, dated 2019).

Chains of the proteins cited; added tags and fusions are not shown. Residues count along the entry.
UniProt P42227, 2-770 limits assumed: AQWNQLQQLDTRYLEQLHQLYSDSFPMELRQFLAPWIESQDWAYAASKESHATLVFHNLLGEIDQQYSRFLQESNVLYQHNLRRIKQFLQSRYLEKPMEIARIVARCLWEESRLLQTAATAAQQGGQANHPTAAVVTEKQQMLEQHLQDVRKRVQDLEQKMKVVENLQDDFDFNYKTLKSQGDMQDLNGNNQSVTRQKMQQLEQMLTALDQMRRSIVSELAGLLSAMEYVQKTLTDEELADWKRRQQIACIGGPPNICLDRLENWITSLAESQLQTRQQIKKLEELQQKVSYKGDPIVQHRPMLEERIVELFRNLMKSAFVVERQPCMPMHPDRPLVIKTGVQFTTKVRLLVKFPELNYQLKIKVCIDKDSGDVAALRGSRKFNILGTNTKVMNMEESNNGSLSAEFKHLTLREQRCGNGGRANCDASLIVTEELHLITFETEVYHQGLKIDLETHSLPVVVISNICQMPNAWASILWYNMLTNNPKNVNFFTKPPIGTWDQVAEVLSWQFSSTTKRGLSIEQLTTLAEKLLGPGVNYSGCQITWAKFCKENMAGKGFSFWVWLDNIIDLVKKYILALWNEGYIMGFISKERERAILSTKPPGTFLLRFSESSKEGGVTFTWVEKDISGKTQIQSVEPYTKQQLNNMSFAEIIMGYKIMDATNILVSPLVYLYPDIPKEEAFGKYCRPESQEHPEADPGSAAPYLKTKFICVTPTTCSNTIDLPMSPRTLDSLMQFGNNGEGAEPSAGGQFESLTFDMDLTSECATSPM

Target: STAT3 (Mus musculus, UniProt P42227)
Test: Stat3 DNA-binding activity, electrophoretic mobility shift assay (EMSA) with nuclear extracts
Format: biochemical
Details: inhibition of STAT3 activity in an EMSA

Structure (SMILES): CN(C)c1cccc2c(S(=O)(=O)N(C)CC(=O)N(Cc3ccc(C4CCCCC4)cc3)c3ccc(C(=O)O)c(O)c3)cccc12 [Compound 45G, 4-(N-(4-cyclohexylbenzyl)-2-(5-(dimethylamino)-N-methylnaphthalene-1-sulfonamido)acetamido)-2-hydroxybenzoic acid]
- IC50: 28.8 ± 1.9 µM

Structure (SMILES): CN(CC(=O)N(Cc1ccc(C2CCCCC2)cc1)c1ccc(C(=O)O)c(O)c1)S(=O)(=O)c1ccc(Br)cc1 [Compound 45J]
- IC50: 90.3 ± 4.5 µM
